Source: PubChem BioAssay (NCATS)
Values joined by “and” are separate entries in the source; they are usually repeats but may differ in a detail not shown here. Equal entries are not always repeated. For part of these data: Most of the hits are listed elsewhere, so they are rarer here than in the full data. Results filed as inconclusive are left out. This is a selection; strong and weak results do not stand in their true shares. Active and inactive are the calls of the source. Unless noted, calls follow the shape of the dose curve; as a rule, active = well fitted curve in the direction sought with a large enough effect; inconclusive = small, poorly fitted or top-dose-only effect, or another doubt; inactive = no such curve, though single readings can be large; an effect the other way counts as inactive or inconclusive.

Tests used:
[1] = HTS Assay for Allosteric Antagonists of the Human D2 Dopamine Receptor: Hit Validation in HTRF (AID 624455); details: Cells stably expressing D1 dopamine receptor, inhibition mode;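 also: stable D1 dopamine receptor cell line scored for blocking the D1 response; potency is read from the fitted curve at half-maximal effect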
Summary of the method: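 Inhibition of the D1-mediated response was measured by HTRF. Cells used were a line stably expressing the D1 dopamine receptor.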

[2] = qHTS assay for small molecule agonists of the antioxidant response element (ARE) signaling pathway (AID 651741; active = well fitted activation curve with a large enough effect in the signal ratio; the % refers to the signal ratio; also: potency is read from the fitted curve at half-maximal effect; as to activation: % of control where 0% means no effect); details: HepG2 ARE-bla reporter, beta-lactamase FRET ratio, 16 h; series mostly up to 96 µM
Summary of the method: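 Reporter: beta-lactamase under ARE, stably in HepG2. Exposure: 16 h, 37 C, compounds delivered in DMSO by pin tool after 5 h cell preincubation. Readout: FRET substrate fluorescence after 2 h at RT.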

[3] = qHTS assay for small molecule agonists of the antioxidant response element (ARE) signaling pathway measured by Nrf2-dependant transcriptional activity (AID 720636; active = well fitted curve in the direction sought with a large enough effect in the repeat runs; an effect the other way counts as inactive or inconclusive; also: potency is read from the fitted curve at half-maximal effect); details: ARE-luc HepG2, Nrf2 luciferase reporter, 16 h
Summary of the method: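 ARE-luc HepG2 cells carrying an Nrf2-responsive luciferase reporter, in medium with 1% dialyzed FBS, exposed to compound for 16 hr at 37 C, 5% CO2. Luminescence read 30 min after ONE-Glo addition.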

KB-3-1 = assay: Cytotoxic Profiling of Annotated Libraries Using Quantitative High-Throughput Screening (AID 1296008); details: Five cell lines viability, CellTiter-Glo ATP luminescence, 48-72 h, stronger effect = lower value; also: % is scaled to controls: 0 for no effect and ±100 for the full control effect; nearly all actives have a fitted effect of over 60% in size
Summary of the method: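 Compounds were pin-transferred onto cells and incubated 48 or 72 hr at 37 degree Celsius, 95% humidity. CellTiter-Glo was added, plates sat 10 min at room temperature, then ATP-coupled luminescence was imaged as the viability read-out.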

Which Potency [1] does the source give for `CCCN1CCC[C@@H](c2cccc(O)c2)C1` here?
The Potency was active: 0.517 µM.

With `CCCN1CCC[C@H](c2cccc(O)c2)C1` as the compound, how does the Potency [1] read?
The Potency was active: 5.17 µM.

Which Potency [2] does the source give for `CC(C)(C)c1cc(O)ccc1O` here?
The Potency was active: 2.73 µM and active: 13.3 µM and active: 10.6 µM.

And the Potency [3]?
The Potency was active: 61.1 µM.

Which Potency [2] does the source give for `CN1CCC[C@H]1c1cccnc1` here?
The Potency was “inactive”.

With `O=c1oc2ccccc2c(O)c1Cc1c(O)c2ccccc2oc1=O` as the compound, how does the max response (KB-3-1) read?
The max response was inactive: 11.2%.
